How the values were obtained:
[1] = target: T1, Toll-like receptor 7 (Homo sapiens) (UniProt Q9NYK1); assay: Agonist activity at TLR7 in human PBMC assessed as induction of IL-6 secretion in supernatant after 18 hrs relative to resiquimod; type: cell-based
T1 sequence (whole entry): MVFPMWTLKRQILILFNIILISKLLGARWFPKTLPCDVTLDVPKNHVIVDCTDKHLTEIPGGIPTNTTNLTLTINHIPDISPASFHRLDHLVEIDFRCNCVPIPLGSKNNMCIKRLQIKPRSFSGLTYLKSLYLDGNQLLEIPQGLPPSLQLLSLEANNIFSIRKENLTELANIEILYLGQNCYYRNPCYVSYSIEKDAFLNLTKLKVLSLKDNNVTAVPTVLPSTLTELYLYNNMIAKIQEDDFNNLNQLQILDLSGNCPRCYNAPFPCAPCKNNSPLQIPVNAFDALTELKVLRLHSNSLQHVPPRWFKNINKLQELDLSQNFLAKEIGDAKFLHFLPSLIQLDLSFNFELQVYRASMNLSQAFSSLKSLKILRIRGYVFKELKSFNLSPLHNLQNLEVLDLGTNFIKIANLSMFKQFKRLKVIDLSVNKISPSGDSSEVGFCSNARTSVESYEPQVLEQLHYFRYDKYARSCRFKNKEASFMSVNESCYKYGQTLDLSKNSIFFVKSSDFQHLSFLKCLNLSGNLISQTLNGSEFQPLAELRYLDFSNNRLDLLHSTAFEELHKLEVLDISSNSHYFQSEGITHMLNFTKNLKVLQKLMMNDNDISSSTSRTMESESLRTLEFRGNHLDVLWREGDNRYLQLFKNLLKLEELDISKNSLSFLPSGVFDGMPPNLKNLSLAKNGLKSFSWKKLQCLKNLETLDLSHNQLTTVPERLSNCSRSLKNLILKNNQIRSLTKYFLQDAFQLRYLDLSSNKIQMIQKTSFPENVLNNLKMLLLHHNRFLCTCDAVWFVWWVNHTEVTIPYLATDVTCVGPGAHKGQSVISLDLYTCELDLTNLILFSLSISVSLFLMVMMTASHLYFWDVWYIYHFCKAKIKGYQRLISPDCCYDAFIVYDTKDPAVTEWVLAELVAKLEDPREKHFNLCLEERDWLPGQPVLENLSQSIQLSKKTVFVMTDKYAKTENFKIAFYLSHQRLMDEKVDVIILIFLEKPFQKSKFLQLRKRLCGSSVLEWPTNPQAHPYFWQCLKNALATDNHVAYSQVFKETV
Procedure, shortened: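 Isolated human PBMCs washed in PBS, resuspended in RPMI1640 with 10% heat-inactivated FBS, pyruvate, HEPES, at 1 × 10⁶ cells/mL. Compounds as in-situ sodium salts from 10 mM aqueous stocks, 3-fold 10-point dilutions from 30 μM.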

[2] = target: T1, Toll-like receptor 7 (Homo sapiens); assay: Agonist activity at human TLR7 expressed in HEK293 cells incubated for 6 hrs by luciferase reporter gene assay relative to resiquimod; type: cell-based
Procedure, shortened: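 HEK293 stably carrying NF-κB-firefly luciferase reporter plus human TLR7 (best resiquimod-responding clone), maintained under puromycin/blasticidin. 25 000 cells per well in DMEM with 3% FCS.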

Structure (SMILES)	%max [1] [%]	%max [2] [%]
COc1ccc(CCc2cnc3c(N)nc4cc(CCP(=O)(O)O)ccc4c3c2)c(C)c1	107	146
COc1ccc(CCc2cnc3c(N)nc4cc(/C=C(\F)P(=O)(O)O)ccc4c3c2)c(C)c1	40	100
COc1ccc(CCc2cnc3c(N)nc4cc(C(=O)C(F)(F)P(=O)(O)O)ccc4c3c2)c(C)c1	56	87
COc1ccc(CCc2cnc3c(N)nc4cc(/C=C/P(=O)(O)O)ccc4c3c2)c(C)c1	90	148
Cc1ccc2c(c1)nc(N)c1ncc(CCc3ccc(OCCCP(=O)(O)O)cc3C)cc12	26	94
Cc1ccc2c(c1)nc(N)c1ncc(CCc3ccc(OCCCC(F)(F)P(=O)(O)O)cc3C)cc12	31	97
Cc1cc(OCCCP(=O)(O)O)ccc1CCc1cnc2c(N)nc3cc(CCC(=O)O)ccc3c2c1	46	107

Reference: ChEMBL document CHEMBL3826928, “Incorporation of Phosphonate into Benzonaphthyridine Toll-like Receptor 7 Agonists for Adsorption to Aluminum Hydroxide” (J Med Chem, 2016)
